One assay deals with HePTP (Homo sapiens, UniProt P35236). Put plainly: PTP activity assay with pNPP as substrate: HePTP. The class given is biochemical. To be noted: read-out: IC50 for HePTP; pNPP as substrate at Km, pH 7.0, 25° C., I = 0.15 M.
The target in another assay is Cdc14A (Homo sapiens, UniProt Q9UNH5). The assay is described as follows: PTP activity assay with pNPP as substrate: Cdc14A. The class given is biochemical. The note with it: read-out: IC50 for Cdc14A; pNPP as substrate at Km, pH 7.0, 25° C., I = 0.15 M.
In a further assay the target is VHR (Homo sapiens, UniProt P51452). The assay is described as follows: PTP activity assay with pNPP as substrate: VHR. In kind it is biochemical. To be noted: read-out: IC50 for VHR; pNPP as substrate at Km, pH 7.0, 25° C., I = 0.15 M.
In another assay the target is Lyp (Homo sapiens, UniProt Q9Y2R2). The assay is described as follows: PTP activity assay with pNPP as substrate: Lyp. In kind it is biochemical. To be noted: read-out: IC50 for Lyp; pNPP as substrate at Km, pH 7.0, 25° C., I = 0.15 M.
The target in another assay is SHP2 (Homo sapiens, UniProt Q06124). The assay is described as follows: Ki measurement, steady-state kinetic analysis of SHP2-catalyzed pNPP hydrolysis. The class given is biochemical. To be noted: Lineweaver-Burk, FIG. 2.
The target in another assay is PTPα (Homo sapiens, UniProt P18433). Put plainly: PTP activity assay with pNPP as substrate: PTPα. The note with it: read-out: IC50 for PTPα; pNPP as substrate at Km, pH 7.0, 25° C., I = 0.15 M. The class given is biochemical.
The next assay addresses CD45 (Homo sapiens, UniProt P08575). The assay is described as follows: PTP activity assay with pNPP as substrate: CD45. In kind it is biochemical. The note with it: read-out: IC50 for CD45; pNPP as substrate at Km, pH 7.0, 25° C., I = 0.15 M.
The test system of assay [1] is TCR-mediated ERK1/2 activation in Jurkat T cells. The assay is described as follows: Anti-CD3 (TCR) induced ERK1/2 activation in Jurkat T cells, immunoblot. To be noted: 2 hours pretreatment, anti-CD3 stimulation. The class given is cell-based. On the procedure:
(§1) Jurkat T cells were grown at 37° C. under an atmosphere of 5% CO2 in RPMI medium 1640 supplemented with 10% FBS. Cells were pretreated with different concentrations of TTN, TTN D-1, or TTM for 2 hours and stimulated with […] anti-CD3 antibody (OKT3; eBioscience) for 5 min and 30 min, respectively. Subsequently, cells were spinned down at 2000 rpm in 4° C., and cell pellets were lysed in 50 mM Tris-HCl (pH 7.5), 150 mM NaCl, 10% glycerol, 1% NP-40, 50 mM NaF, 10 mM pyrophosphate, 5 mM idoacetate, 1 mM sodium orthovanadate, and the protease inhibitor mixture. After 30 min lysing on ice, the cell lysates were centrifuged at 13,200 rpm for 15 min. Total cellular proteins were separated by SDS/PAGE and transferred electrophoretically to nitrocellulose membrane, which was immunoblotted by appropriate antibodies followed by incubation with HRP-conjugated secondary antibodies. Blots were developed using Pierce Pico ECL reagent (Thermo) according to the manufacturer's instructions.
(§2) TTN induces immunosuppression by suppression of TCR-mediated tyrosine phosphorylation and ERK1/2 activity in T cells (Shim et al., 2002). However, the mechanism of action for TTN's ability to block TCR signaling remains undefined. […]
Background: Immunoblotting shows a protein as a band on a membrane.

Protein sequences, listed by entry. Tags and fused reporters are not part of them. Residues count along the entry.
UniProt P35236, whole entry: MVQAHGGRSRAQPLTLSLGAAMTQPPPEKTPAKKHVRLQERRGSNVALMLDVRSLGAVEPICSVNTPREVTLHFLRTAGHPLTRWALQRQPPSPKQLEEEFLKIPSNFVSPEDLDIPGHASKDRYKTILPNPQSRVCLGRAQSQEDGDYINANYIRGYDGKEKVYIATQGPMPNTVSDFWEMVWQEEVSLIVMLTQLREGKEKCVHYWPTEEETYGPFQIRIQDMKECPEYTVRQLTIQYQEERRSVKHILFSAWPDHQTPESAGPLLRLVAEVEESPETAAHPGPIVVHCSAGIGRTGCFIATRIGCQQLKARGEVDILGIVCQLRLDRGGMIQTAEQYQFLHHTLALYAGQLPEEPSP
UniProt Q9UNH5, whole entry: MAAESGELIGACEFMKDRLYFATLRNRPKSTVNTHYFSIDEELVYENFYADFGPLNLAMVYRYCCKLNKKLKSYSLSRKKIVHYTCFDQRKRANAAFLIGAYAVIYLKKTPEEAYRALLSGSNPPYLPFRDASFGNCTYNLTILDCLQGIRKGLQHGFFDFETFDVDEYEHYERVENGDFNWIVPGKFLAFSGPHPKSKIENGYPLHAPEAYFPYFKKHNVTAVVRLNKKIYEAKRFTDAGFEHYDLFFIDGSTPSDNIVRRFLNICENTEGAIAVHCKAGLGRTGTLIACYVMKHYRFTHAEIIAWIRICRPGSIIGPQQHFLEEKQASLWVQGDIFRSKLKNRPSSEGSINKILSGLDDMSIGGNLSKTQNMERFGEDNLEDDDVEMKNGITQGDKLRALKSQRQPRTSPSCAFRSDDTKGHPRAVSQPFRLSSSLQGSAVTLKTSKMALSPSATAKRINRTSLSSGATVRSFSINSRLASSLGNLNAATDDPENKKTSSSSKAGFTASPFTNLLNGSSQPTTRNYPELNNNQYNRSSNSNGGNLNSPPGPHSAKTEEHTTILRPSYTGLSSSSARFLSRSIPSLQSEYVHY
UniProt P51452, whole entry: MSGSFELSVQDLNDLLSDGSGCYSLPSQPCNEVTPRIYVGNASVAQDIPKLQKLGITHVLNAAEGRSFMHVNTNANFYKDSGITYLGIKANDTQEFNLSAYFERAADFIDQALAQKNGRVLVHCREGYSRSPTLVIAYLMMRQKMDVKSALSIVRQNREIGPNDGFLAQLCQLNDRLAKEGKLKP
UniProt Q9Y2R2, whole entry: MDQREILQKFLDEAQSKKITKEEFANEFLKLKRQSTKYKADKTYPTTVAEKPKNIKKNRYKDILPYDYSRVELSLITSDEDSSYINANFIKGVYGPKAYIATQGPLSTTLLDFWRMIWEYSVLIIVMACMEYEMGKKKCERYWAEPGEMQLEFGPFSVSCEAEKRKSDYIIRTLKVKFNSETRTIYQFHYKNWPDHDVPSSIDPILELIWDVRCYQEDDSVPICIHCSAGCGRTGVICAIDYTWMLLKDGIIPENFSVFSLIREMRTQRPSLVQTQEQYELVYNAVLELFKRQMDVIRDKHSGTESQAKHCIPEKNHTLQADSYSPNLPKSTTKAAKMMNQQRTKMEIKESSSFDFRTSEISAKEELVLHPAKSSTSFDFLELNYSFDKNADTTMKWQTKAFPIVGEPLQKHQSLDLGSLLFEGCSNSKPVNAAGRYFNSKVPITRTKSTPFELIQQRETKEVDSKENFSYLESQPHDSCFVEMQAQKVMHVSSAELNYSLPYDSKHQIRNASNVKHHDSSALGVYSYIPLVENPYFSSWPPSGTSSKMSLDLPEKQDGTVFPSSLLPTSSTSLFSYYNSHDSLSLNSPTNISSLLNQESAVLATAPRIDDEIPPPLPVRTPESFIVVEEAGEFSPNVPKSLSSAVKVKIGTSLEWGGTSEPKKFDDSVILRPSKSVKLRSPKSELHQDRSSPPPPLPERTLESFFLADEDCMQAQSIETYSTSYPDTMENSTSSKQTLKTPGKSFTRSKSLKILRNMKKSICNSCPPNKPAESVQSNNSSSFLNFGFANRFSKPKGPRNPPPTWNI
UniProt Q06124, 262-528 limits assumed: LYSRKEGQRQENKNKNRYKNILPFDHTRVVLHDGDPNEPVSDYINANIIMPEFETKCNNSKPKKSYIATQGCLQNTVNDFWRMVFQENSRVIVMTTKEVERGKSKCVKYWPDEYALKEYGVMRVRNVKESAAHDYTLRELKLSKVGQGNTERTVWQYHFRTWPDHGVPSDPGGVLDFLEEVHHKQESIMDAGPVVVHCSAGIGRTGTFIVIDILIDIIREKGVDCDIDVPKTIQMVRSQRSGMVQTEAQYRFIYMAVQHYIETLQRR
UniProt P18433, 20-802 limits assumed: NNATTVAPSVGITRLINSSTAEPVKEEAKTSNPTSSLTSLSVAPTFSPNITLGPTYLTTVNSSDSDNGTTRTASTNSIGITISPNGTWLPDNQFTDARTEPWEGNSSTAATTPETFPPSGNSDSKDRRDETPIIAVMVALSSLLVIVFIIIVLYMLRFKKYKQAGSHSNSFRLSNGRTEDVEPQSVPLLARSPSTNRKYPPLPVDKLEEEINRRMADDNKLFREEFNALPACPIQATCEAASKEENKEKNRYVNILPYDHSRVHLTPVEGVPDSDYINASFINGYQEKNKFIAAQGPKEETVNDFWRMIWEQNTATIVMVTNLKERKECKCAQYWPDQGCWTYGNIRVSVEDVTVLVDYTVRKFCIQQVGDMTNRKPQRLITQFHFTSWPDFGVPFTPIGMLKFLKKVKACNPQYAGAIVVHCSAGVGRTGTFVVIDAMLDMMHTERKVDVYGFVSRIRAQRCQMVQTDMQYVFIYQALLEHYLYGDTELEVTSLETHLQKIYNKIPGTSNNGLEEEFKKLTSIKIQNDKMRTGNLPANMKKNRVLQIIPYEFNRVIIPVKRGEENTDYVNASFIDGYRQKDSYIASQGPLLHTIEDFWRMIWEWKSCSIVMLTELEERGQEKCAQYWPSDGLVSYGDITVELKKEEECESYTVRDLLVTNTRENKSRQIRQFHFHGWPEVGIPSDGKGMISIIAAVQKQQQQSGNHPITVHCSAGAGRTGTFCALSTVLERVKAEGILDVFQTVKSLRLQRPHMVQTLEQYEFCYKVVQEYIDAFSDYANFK
UniProt P08575, 26-1306 limits assumed: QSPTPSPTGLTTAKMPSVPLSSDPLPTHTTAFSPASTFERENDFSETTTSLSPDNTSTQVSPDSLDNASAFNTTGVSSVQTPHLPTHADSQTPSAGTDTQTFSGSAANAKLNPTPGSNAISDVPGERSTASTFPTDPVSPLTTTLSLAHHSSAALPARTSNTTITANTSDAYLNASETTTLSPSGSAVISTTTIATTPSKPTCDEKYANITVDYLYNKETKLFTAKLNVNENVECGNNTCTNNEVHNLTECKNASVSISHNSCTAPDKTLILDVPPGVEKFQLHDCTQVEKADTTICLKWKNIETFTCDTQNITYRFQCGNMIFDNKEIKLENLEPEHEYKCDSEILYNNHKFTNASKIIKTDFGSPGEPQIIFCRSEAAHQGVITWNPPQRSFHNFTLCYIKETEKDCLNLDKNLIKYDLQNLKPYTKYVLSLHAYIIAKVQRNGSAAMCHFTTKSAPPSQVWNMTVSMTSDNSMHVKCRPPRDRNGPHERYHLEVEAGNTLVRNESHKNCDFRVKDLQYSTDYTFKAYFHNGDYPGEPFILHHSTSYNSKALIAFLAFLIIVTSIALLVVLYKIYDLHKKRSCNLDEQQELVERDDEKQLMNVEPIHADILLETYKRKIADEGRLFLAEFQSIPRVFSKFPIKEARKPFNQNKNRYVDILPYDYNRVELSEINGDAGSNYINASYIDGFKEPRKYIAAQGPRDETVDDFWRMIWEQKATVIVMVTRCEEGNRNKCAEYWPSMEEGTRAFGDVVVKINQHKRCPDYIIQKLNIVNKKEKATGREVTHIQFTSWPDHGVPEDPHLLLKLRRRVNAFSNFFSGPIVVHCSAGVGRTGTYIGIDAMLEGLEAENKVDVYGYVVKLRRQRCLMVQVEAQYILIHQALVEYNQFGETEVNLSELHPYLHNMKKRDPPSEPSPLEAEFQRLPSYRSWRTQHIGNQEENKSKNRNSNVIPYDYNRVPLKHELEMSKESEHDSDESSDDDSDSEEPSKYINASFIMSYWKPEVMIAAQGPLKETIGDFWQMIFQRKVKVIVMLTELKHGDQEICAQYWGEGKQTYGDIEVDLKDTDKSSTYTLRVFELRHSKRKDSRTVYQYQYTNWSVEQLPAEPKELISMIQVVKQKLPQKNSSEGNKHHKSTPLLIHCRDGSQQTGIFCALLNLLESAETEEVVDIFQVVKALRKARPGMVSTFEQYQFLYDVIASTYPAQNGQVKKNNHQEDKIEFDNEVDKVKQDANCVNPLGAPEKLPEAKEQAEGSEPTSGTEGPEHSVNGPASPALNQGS

Assay [2] has as its system TCR-mediated tyrosine phosphorylation in Jurkat T cells. The assay is described as follows: Anti-CD3 (TCR) induced tyrosine phosphorylation in Jurkat T cells, immunoblot. In kind it is cell-based. To be noted: 2-4 μM, 2 hours pretreatment, anti-CD3 stimulation. On the procedure: as §1, §2

The values that follow come from patent US8637684B2, “Tautomycetin and tautomycetin analog biosynthesis” (Wisconsin Alumni Research Foundation, priority 2010, dated 2014).

Broadly, the IC50 is the point on the concentration scale where inhibition reaches its midpoint. `CCC(/C=C/C(=O)O)=C\CC[C@H](C)C[C@@H](C)CC[C@H](O)[C@H](C)C(=O)C[C@@H](O)[C@H](C)[C@@H](C)OC(=O)C[C@@H](O)C1=C(C)C(=O)OC1=O`: the concentration for half-maximal inhibition (IC50) at HePTP, at Cdc14A, on VHR, on Lyp, at PTPα and at CD45 was > 50 µM in each case. For the same molecule, on SHP2, the “mode of inhibition of the SHP2-catalyzed reaction” value is recorded as “competitive inhibitors”. The “effect on TCR-mediated ERK1/2 activation” value in [1] is reported as “strongly reduced”. For the same molecule, the “effect on TCR-mediated tyrosine phosphorylation” value in assay [2] is recorded as “blocked”.
